Key:
[1] = target: α1d (Homo sapiens, UniProt P25100); settings: read-out: Affinity (Ki, nM) α1d; recombinant cloned human receptor, CHO cell membranes, 0.2 nM [3H]prazosin
[2] = target: T1, α1a (Homo sapiens, UniProt P35348); settings: read-out: Affinity (Ki, nM) α1a; recombinant cloned human receptor, CHO cell membranes, 0.2 nM [3H]prazosin
T1 sequence (P35348 1-466): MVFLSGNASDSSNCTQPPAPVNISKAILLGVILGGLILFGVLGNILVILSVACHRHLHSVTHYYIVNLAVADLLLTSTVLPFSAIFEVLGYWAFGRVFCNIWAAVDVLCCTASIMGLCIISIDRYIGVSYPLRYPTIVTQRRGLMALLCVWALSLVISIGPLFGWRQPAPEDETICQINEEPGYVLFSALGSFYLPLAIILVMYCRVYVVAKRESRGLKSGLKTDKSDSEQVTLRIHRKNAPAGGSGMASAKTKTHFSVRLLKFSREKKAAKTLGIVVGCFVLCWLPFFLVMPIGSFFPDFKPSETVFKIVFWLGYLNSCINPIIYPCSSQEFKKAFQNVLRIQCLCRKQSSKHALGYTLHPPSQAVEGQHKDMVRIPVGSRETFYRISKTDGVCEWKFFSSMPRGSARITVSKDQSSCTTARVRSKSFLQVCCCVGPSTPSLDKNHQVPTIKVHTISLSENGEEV

Sequences of proteins named here, by UniProt entry; tags and fusion partners are left off.
UniProt P25100, whole entry: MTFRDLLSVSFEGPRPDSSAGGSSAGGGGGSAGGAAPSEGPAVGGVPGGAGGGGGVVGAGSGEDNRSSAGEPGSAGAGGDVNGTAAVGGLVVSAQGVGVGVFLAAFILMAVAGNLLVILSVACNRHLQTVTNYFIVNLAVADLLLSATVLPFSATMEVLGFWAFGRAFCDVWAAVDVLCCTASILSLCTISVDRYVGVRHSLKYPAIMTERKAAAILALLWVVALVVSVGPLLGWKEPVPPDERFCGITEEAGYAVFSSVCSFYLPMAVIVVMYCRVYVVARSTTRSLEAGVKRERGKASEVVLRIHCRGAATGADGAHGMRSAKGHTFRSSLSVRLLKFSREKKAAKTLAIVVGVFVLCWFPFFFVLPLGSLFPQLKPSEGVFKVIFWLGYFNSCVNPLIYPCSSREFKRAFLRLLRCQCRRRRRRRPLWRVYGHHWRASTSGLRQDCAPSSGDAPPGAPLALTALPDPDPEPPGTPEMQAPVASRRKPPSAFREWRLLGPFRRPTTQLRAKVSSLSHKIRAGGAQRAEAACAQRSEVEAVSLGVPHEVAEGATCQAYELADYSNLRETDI
UniProt P35368, whole entry: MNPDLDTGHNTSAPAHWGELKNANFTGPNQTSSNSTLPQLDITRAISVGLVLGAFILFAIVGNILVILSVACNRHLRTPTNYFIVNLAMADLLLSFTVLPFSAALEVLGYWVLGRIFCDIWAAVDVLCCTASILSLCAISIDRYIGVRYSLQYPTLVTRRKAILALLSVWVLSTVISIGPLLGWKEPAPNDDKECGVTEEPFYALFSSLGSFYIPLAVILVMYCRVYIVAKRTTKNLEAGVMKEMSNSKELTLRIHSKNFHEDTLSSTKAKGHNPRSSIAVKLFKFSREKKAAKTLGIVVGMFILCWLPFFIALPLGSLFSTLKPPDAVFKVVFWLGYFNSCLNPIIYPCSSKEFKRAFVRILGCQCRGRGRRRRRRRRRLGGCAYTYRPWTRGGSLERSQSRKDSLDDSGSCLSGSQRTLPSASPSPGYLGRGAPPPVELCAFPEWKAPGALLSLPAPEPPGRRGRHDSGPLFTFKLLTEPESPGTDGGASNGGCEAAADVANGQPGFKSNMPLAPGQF

[3] = target: α1b (Homo sapiens, UniProt P35368)

COc1ccccc1N1CCN(CCCNC(=O)c2cccc3c(=O)c(C)c(-c4ccccc4)oc23)CC1 [Compound A] was tested, and the Ki [1] was 2.84 nM, the Ki [2] was 0.6 nM and the Ki [3] was 3.29 nM.

— patent EP1200445B1, “THIENOPYRANECARBOXAMIDE DERIVATIVES” (RECORDATI INDUSTRIA CHIMICA E FARMACEUTICA S.p.a., priority 1999, dated 2001)
